Assay results from PubChem BioAssay (EPA / NIEHS).
Where “and” joins values, the source holds several entries; their conditions need not be identical. Equal values may be shown once. The list shows a part of the results, in another mix than the full data. Some compounds were tested as several samples or in several runs, with calls that do not always agree. Calls of active or inactive are those of the source. How the source made its calls: active means hit-call score of the fitted dose curve at least 0.9, where 1 is the maximum; inactive means score below 0.9.

Amino acid sequences for entries named in this document (tags omitted). A change or cut given only in a name is not applied to a line headed by its entry.
UniProt Q16665, whole entry, looked up: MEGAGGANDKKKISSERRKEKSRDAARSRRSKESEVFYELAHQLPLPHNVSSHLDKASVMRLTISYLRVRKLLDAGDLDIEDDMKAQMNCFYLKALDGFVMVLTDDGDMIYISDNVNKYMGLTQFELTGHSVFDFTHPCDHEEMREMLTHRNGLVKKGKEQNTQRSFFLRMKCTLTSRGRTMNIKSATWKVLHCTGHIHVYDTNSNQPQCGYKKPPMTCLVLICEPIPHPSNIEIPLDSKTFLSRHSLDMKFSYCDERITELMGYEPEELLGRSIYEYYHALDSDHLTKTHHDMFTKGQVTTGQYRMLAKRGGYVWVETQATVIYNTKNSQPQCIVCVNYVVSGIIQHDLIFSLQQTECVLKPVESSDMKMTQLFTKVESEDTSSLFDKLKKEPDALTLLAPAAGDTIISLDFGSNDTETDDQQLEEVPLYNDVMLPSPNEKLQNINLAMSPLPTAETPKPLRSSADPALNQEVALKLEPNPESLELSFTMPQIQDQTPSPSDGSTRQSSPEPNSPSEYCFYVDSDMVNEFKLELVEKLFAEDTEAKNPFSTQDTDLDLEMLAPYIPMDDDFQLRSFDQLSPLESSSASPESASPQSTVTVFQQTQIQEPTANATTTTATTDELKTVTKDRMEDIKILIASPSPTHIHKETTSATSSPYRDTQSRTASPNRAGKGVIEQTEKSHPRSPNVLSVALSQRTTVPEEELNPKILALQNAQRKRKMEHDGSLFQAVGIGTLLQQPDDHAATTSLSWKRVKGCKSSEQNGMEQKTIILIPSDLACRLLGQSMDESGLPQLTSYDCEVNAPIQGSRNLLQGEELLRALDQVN
UniProt Q9UBC0: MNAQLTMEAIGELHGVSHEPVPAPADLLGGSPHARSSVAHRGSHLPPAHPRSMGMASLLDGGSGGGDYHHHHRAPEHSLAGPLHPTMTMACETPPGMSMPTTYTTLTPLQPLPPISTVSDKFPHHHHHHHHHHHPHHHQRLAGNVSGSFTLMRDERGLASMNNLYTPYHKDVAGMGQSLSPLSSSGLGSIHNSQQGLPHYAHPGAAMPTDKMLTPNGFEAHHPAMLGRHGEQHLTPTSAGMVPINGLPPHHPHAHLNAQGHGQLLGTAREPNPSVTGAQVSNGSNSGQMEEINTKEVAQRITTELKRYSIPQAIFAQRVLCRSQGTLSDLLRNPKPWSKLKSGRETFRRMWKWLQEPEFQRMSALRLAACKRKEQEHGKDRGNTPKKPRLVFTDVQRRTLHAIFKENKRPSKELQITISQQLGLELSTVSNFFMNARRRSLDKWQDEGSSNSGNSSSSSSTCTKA
UniProt Q00613: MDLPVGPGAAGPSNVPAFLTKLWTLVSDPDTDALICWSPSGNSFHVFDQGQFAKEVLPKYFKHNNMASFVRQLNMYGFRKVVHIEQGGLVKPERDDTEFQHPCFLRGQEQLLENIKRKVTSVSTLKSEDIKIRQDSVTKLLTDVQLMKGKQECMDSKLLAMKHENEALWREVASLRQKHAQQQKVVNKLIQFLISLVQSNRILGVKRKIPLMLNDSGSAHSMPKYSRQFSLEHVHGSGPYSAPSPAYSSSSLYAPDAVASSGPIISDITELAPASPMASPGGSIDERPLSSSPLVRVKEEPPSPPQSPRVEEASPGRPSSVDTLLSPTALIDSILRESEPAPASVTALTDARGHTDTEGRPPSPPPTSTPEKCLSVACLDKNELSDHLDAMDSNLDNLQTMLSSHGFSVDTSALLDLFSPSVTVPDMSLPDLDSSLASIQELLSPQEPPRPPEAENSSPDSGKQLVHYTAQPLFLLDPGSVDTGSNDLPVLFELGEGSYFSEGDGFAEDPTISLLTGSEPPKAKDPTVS
UniProt P26367: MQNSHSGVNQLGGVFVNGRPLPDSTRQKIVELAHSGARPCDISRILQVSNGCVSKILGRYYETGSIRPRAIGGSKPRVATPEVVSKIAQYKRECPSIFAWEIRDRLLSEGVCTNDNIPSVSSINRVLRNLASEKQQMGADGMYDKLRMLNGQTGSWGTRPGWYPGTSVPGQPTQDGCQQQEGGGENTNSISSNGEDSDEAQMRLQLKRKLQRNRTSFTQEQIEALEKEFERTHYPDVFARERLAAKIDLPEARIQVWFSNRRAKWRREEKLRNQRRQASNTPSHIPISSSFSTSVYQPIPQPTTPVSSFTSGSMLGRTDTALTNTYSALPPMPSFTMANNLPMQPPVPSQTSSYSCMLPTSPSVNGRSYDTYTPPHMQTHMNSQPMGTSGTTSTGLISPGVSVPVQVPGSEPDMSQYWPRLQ

Experiments:
[1] = ATG_M_32_CIS: Attagene CIS-FACTORIAL HepG2 Assay for M32 Transcription Factor (Internal Marker) (AID 2282949); conditions: HepG2 Attagene cis-factorial M32 reporter, mRNA; actives raise or lower the signal;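 further: background control marker of the multiplexed CIS panel rather than a real target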
In short: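 HepG2 cells transiently transfected with multiplexed cis-regulated reporter units, dosed 24 h. Reporter mRNA quantified by RT-PCR, 6-FAM labelling, HpaI digestion and capillary electrophoresis; bidirectional fit vs DMSO.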

[2] = ATG_M_06_CIS: Attagene CIS-FACTORIAL HepG2 Assay for M06 Transcription Factor (Internal Marker) (AID 2282950); conditions: HepG2 Attagene CIS-FACTORIAL M06 internal marker reporter; actives raise or lower the signal
In short: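 Internal background marker within multiplexed cis-reporter HepG2 system. Cells transiently transfected, dosed 24 h; reporter mRNA measured by RT-PCR, HpaI digestion and capillary electrophoresis. Bidirectional fit relative to DMSO.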

[3] = target: Hypoxia-inducible factor 1-alpha (Homo sapiens) (UniProt Q16665); assay: ATG_HIF1a_CIS: Attagene CIS-FACTORIAL HepG2 Assay for human Hypoxia Inducible Factor 1 (HIF1A) (AID 2282951); conditions: HepG2 Attagene cis-factorial HIF1a reporter transcription; actives raise or lower the signal
In short: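 After 24 h chemical exposure of reporter-transfected HepG2 cells, reporter cDNA was PCR-amplified, labelled by 6-FAM primer extension (2 min 95 C, 20 s 68 C, 10 min 72 C), HpaI-cut (2 h, 37 C) and analysed by CE.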

[4] = target: Hepatocyte nuclear factor 6 (Homo sapiens) (UniProt Q9UBC0); assay: ATG_HNF6_CIS: Attagene CIS-FACTORIAL HepG2 Assay for human Hepatocyte Nuclear Factor 6 (HNF6) (AID 2282952); conditions: HepG2 Attagene cis-factorial HNF6 reporter transcription; actives raise or lower the signal
In short: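 Transiently transfected HepG2 cells expressing cis-regulated reporter transcription units were exposed to chemical for 24 h in a 24-well format. Reporter transcript abundance was determined by fluorescence capillary electrophoresis.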

[5] = target: Heat shock factor protein 1 (Homo sapiens) (UniProt Q00613); assay: ATG_HSE_CIS: Attagene CIS-FACTORIAL HepG2 Assay for human Heat Shock Transcription Factor 1 (HSE) (AID 2282953); conditions: HepG2 HSE cis-reporter, Attagene RNA transcription; actives raise or lower the signal
In short: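 HepG2 cells transfected with cis-promoter reporter units sensing endogenous transcription factor activity; reporter mRNA quantified 24 h post-dose by RT-PCR and capillary electrophoresis of 6-FAM-labelled products. Bidirectional fitting against DMSO.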

[6] = ATG_MRE_CIS: Attagene CIS-FACTORIAL HepG2 Assay for human Metal Responsive Element (MRE) (AID 2282954); conditions: HepG2 MRE cis-reporter transcription, Attagene multiplex; actives raise or lower the signal
In short: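 Transient MRTU transfection of HepG2 (FuGene 6); 24 h dosing; total RNA → oligo(dT) RT, PCR, 6-FAM primer extension, HpaI cut, CE. Bidirectional fit vs DMSO.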

[7] = ATG_PBREM_CIS: Attagene CIS-FACTORIAL HepG2 Assay for human Phenobarbital-responsive Enhancer Module (PBREM) (AID 2282955); conditions: HepG2 PBREM cis-reporter, Attagene multiplexed transcription; actives raise or lower the signal
In short: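 Measures endogenous factor action on a phenobarbital-responsive enhancer module. HepG2 transiently carrying cis reporters, 24 h treatment, mRNA read-out by RT-PCR plus capillary electrophoresis.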

[8] = target: Paired box protein Pax-6 (Homo sapiens) (UniProt P26367); assay: ATG_Pax6_CIS: Attagene CIS-FACTORIAL HepG2 Assay for human Paired Box 6 (PAX6) (AID 2282956); conditions: HepG2 CIS-FACTORIAL PAX6 reporter transcription, RNA readout; actives raise or lower the signal
In short: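 After twenty-four hours of chemical exposure, transfected HepG2 cells are harvested for RNA. Cis-promoter reporter transcripts are amplified, fluorescently labelled and sized by capillary electrophoresis, with gain and loss of signal scored against DMSO.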

[9] = ATG_RORE_CIS: Attagene CIS-FACTORIAL HepG2 Assay for human RAR-related Orphan Receptor Element (RORE) (AID 2282959); conditions: HepG2 Attagene cis-factorial RORE reporter, mRNA; actives raise or lower the signal
In short: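 A 24-hour exposure of transfected HepG2 hepatoma cells precedes RNA isolation and reporter RT-PCR. Labeled products are digested with HpaI and resolved by capillary electrophoresis, with gain or loss of signal scored relative to DMSO.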

[10] = ATG_Sox_CIS: Attagene CIS-FACTORIAL HepG2 Assay for human SRY-box transcription factor (SOX) (AID 2282960); conditions: HepG2 Attagene cis-factorial SOX reporter, mRNA; actives raise or lower the signal
In short: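 HepG2, cis reporter units, 24 h exposure. Reporter mRNA: RT-PCR → FAM labelling → HpaI → CE fluorescence. Bidirectional fit vs DMSO.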

Row | SMILES | outcome [1] | outcome [2] | outcome [3] | outcome [4] | outcome [5] | outcome [6] | outcome [7] | outcome [8] | outcome [9] | outcome [10] | AC50 [4] | AC50 [5] | AC50 [6] | AC50 [8] | AC50 [10] | AC50 [7]
1 | O=[p+]1oc2ccccc2c2ccccc21 (stereo not drawn) | inactive | inactive | inactive | inactive | inactive | inactive | inactive | inactive | inactive | inactive |  |  |  |  |  | 
2 | CCCCOP(OCCCC)OCCCC | inactive | inactive | inactive | inactive | inactive | inactive | inactive | inactive | inactive | inactive |  |  |  |  |  | 
3 | O=C(Cl)OCCOC(=O)Cl | inactive | inactive | inactive | inactive | inactive | inactive |  | inactive | inactive | inactive |  |  |  |  |  | 
4 | CCCCC(CC)CO[P+](=O)OCC(CC)CCCC (stereo not drawn) | inactive | inactive | inactive | inactive | inactive | inactive | inactive | inactive | inactive | inactive |  |  |  |  |  | 
5 | O=[As]c1ccccc1 (stereo not drawn) | inactive | inactive | inactive |  |  |  | inactive |  | inactive |  | active: 0.53 µM | active: 0.236 µM | active: 0.32 µM | active: 0.325 µM | active: 0.412 µM | 
6 | Cc1cc([N+](=O)[O-])cc([N+](=O)[O-])c1O | inactive | inactive |  | inactive | inactive | inactive | inactive | inactive | inactive | inactive |  |  |  |  |  | 
7 | CC(C)CCCCCCCOP(OCCCCCCCC(C)C)Oc1ccccc1 | inactive | inactive | inactive | inactive |  | inactive | inactive | inactive | inactive | inactive |  | active: 100 µM |  |  |  | 
8 | O=P(Cl)(Oc1ccccc1)Oc1ccccc1 | inactive | inactive | inactive | inactive | inactive | inactive | inactive | inactive | inactive | inactive |  |  |  |  |  | 
9 | O=[P+](Oc1ccccc1)Oc1ccccc1 | inactive | inactive | inactive | inactive | inactive | inactive | inactive | inactive | inactive | inactive |  |  |  |  |  | 
10 | N#CSc1ccc([N+](=O)[O-])cc1[N+](=O)[O-] | inactive | inactive | inactive | inactive |  | inactive | inactive |  | inactive |  |  |  |  |  | active: 17.1 µM | 
11 | ClP(Cl)c1ccccc1 | inactive | inactive | inactive | inactive | inactive | inactive |  | inactive | inactive | inactive |  |  |  |  |  | 
12 | O=C1C2CC=CCC2C(=O)N1SC(Cl)(Cl)C(Cl)Cl (stereo not drawn) | inactive | inactive | inactive | inactive | inactive | inactive | inactive | inactive |  | inactive |  |  |  |  |  | 
13 | O=C(Cl)Oc1ccccc1 | inactive | inactive | inactive | inactive | inactive | inactive | inactive | inactive | inactive | inactive |  |  |  |  |  | 
14 | CN(C(=O)Cc1cccc2occc12)[C@H]1CC[C@@]2(CCCO2)C[C@@H]1N1CCCC1 | inactive | inactive | inactive | inactive | inactive | inactive | inactive | inactive |  | inactive |  |  |  |  |  | 
15 | O=[N+]([O-])c1ccc([N+](=O)[O-])cc1 | inactive | inactive | inactive | inactive |  |  | inactive |  | inactive | inactive |  | active: 61.9 µM | active: 66.8 µM | active: 100 µM |  | 
16 | CCCCO[P+](=O)OCCCC | inactive | inactive | inactive | inactive | inactive | inactive | inactive | inactive | inactive | inactive |  |  |  |  |  | 
17 | CC(C)OP(=S)(OC(C)C)SCCNS(=O)(=O)c1ccccc1 | inactive | inactive | inactive | inactive | inactive | inactive | inactive | inactive |  | inactive |  |  |  |  |  | active: 514 nM and active: 365 nM
